# Results taken from ChEMBL document CHEMBL1127733, “Aspartyl alpha-((1-phenyl-3-(trifluoromethyl)-pyrazol-5-yl)oxy)methyl ketones as interleukin-1 beta converting enzyme inhibitors. Significance of the P1 and P3 amido nitrogens for enzyme-peptide inhibitor binding” (J Med Chem, 1994).
# Target: T1, Caspase-1 (Homo sapiens) (UniProt P29466)
# T1 sequence (whole entry): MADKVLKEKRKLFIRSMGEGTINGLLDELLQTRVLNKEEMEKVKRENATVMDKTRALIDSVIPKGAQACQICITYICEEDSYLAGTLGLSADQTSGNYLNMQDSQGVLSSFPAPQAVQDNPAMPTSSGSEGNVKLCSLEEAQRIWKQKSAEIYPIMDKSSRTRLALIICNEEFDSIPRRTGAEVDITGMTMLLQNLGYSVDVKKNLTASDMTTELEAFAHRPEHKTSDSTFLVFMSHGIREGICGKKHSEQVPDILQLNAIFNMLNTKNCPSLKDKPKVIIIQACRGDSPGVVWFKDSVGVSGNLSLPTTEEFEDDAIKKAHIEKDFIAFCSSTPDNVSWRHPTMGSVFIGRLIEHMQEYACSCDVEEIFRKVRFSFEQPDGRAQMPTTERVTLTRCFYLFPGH
# Assay: Inhibition constant against interleukin-1-beta converting enzyme
row,K obs / 1 [M⁻¹ s⁻¹],Structure (SMILES)
1,280000,CC(C)[C@H](NC(=O)OCc1ccccc1)C(=O)N[C@@H](C)C(=O)N[C@@H](CC(=O)O)C(=O)COc1cc(C(F)(F)F)nn1-c1ccccc1
2,271000,CC(C)[C@H](NC(=O)OCc1ccccc1)C(=O)N1CCCC[C@H]1C(=O)N[C@@H](CC(=O)O)C(=O)COc1cc(C(F)(F)F)nn1-c1ccccc1
